Protein sequences, listed by entry. Tags and fused reporters are not part of them. Lines headed by an entry give the natural chain unless they say otherwise; changes in a name come on top.
UniProt Q14123, whole entry: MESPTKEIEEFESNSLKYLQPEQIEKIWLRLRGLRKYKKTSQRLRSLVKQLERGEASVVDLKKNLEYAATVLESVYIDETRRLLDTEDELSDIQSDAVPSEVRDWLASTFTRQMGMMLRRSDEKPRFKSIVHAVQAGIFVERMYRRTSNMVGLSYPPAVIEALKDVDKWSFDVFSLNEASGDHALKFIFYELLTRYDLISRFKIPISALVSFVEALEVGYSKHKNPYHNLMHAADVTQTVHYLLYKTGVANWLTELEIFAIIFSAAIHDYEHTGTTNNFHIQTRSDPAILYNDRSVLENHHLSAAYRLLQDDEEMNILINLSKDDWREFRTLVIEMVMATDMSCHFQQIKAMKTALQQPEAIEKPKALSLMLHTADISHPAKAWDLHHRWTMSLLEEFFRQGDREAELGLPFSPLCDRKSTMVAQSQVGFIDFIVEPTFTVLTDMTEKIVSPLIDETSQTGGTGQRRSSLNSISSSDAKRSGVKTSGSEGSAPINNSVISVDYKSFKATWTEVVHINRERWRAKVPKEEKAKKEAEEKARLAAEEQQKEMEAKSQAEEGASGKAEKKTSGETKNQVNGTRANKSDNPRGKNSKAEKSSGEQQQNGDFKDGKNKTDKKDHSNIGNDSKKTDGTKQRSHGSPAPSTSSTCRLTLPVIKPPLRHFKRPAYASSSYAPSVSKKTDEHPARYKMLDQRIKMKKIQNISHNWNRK
UniProt Q01064: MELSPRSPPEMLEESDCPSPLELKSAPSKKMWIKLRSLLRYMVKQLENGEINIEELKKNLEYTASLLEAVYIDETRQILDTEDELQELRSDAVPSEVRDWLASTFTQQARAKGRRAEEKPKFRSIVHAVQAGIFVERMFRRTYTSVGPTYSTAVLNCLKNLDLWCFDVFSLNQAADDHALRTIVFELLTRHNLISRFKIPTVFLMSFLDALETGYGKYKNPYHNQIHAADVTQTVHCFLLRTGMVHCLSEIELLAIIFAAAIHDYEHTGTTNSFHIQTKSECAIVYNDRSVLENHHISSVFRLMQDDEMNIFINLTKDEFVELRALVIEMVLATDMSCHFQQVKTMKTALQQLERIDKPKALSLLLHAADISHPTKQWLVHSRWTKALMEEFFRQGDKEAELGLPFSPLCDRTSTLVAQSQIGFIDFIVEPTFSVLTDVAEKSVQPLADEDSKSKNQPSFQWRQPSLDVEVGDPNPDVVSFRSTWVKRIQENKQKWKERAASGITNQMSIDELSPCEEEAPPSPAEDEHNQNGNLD

According to US10034861B2 (priority 2016, dated 2018):

The compounds below were run against PDE1C (Homo sapiens (Human), UniProt Q14123) (assay: not given). Conditions: 15 nM tritium labelled cAMP, 1 hr at room temperature, SPA beads.
Format: biochemical
Excerpt: (§1) Table 1 lists the IC50 value for inhibition of PDE1 by the compounds of the invention. […] PDE1 assays are described in the Experimental Section.

Row | Compound | IC50 [nM]
1 | CCOc1ncccc1-c1cc(NCc2nc(C)co2)c2c(n1)c(C)nn2C(C)C [Example 50, 5-(2-ethoxypyridin-3-yl)-1-isopropyl-3-methyl-N-((4-methyloxazol-2-yl)methyl)-1H-pyrazolo[4,3-b]pyridin-7-amine 2,2,2-trifluoroacetate] | 16
2 | Cc1sccc1-c1cc(NCc2cnn(C)c2)c2c(n1)c(C)nn2C(C)C [Example 65, 1-isopropyl-3-methyl-N-[(1-methylpyrazol-4-yl)methyl]-5-(2-methyl-3-thienyl)pyrazolo[4,3-b]pyridin-7-amine] | 16

What follows are compounds tested against PDE1B (Homo sapiens (Human), UniProt Q01064) (assay: PDE1 inhibition assay (PDE1B)). Conditions: 15 nM tritium labelled cAMP, 1 hr at room temperature, SPA beads; read-out: PDE1B, IC50.
Format: biochemical
Excerpt: as §1

Row | Compound | IC50 [nM]
3 | Cc1nn(C(C)C)c2c(NCc3cccnc3C(F)(F)F)cc(-c3ccc[nH]c3=O)nc12 [Example 193, 3-[1-isopropyl-3-methyl-7-[[2-(trifluoromethyl)-3-pyridyl]methylamino]pyrazolo[4,3-b]pyridin-5-yl]-1H-pyridin-2-one] | 54
4 | CCOc1ncccc1-c1cc(NCc2cc(C)no2)c2c(cnn2C(C)C)n1 [Example 42, 5-(2-ethoxy-3-pyridyl)-1-isopropyl-N-[(3-methylisoxazol-5-yl)methyl]pyrazolo[4,3-b]pyridin-7-amine] | 5.8
5 | CCOc1ncccc1-c1cc(NCc2csc(C)n2)c2c(n1)c(C)nn2C(C)C [Example 11, 5-(2-ethoxy-3-pyridyl)-1-isopropyl-3-methyl-N-[(2-methylthiazol-4-yl)methyl]pyrazolo[4,3-b]pyridin-7-amine] | 0.72
6 | CCOc1ncccc1-c1cc(NCc2nccc(C)n2)c2c(n1)c(C)nn2C(C)C [Example 75, 5-(2-ethoxy-3-pyridyl)-1-isopropyl-3-methyl-N-[(4-methylpyrimidin-2-yl)methyl]pyrazolo[4,3-b]pyridin-7-amine] | 0.81
7 | CCOc1ncccc1-c1cc(NCc2cc(C)no2)c2c(n1)c(C)nn2C(C)C [Example 10, 5-(2-ethoxy-3-pyridyl)-1-isopropyl-3-methyl-N-[(3-methylisoxazol-5-yl)methyl]pyrazolo[4,3-b]pyridin-7-amine] | 0.47
8 | CCOc1ncccc1-c1cc(OCc2cnc(C)o2)c2c(n1)c(C)nn2C(C)C [Example 72, 5-[[5-(2-ethoxy-3-pyridyl)-1-isopropyl-3-methyl-pyrazolo[4,3-b]pyridin-7-yl]oxymethyl]-2-methyl-oxazole] | 2.4
9 | CCOc1ncccc1-c1cc(NCc2cnn(C)c2)c2c(n1)c(C)nn2C(C)C [Example 9, 5-(2-ethoxypyridin-3-yl)-1-isopropyl-3-methyl-N-((1-methyl-1H-pyrazol-4-yl)methyl)-1H-pyrazolo[4,3-b]pyridin-7-amine] | 0.49
10 | CCOc1ncccc1-c1cc(NCc2cc(C)n(C)n2)c2c(cnn2C(C)C)n1 [Example 44, N-[(1,5-dimethylpyrazol-3-yl)methyl]-5-(2-ethoxy-3-pyridyl)-1-isopropyl-pyrazolo[4,3-b]pyridin-7-amine] | 1.4
11 | Cc1coc(-c2cc(NCc3cnn(C)c3)c3c(n2)c(C)nn3C(C)C)n1 [Example 202, 1-isopropyl-3-methyl-N-((1-methyl-1H-pyrazol-4-yl)methyl)-5-(4-methyloxazol-2-yl)-1H-pyrazolo[4,3-b]pyridin-7-amine] | 14
12 | CCOc1ncccc1-c1cc(NCc2noc(C)n2)c2c(cnn2C(C)C)n1 [Example 43, 5-(2-ethoxy-3-pyridyl)-1-isopropyl-N-[(5-methyl-1,2,4-oxadiazol-3-yl)methyl]pyrazolo[4,3-b]pyridin-7-amine] | 2.4
13 | CCCOc1ncccc1-c1cc(NCc2cn[nH]c2)c2c(n1)c(C)nn2C(C)C [Example 196, 1-isopropyl-3-methyl-5-(2-propoxy-3-pyridyl)-N-(1H-pyrazol-4-ylmethyl)pyrazolo[4,3-b]pyridin-7-amine] | 1.7
14 | CCOc1ncccc1-c1cc(NCc2ncn(C)n2)c2c(n1)c(C)nn2C(C)C [Example 31, 5-(2-ethoxy-3-pyridyl)-1-isopropyl-3-methyl-N-[(1-methyl-1,2,4-triazol-3-yl)methyl]pyrazolo[4,3-b]pyridin-7-amine] | 0.11
15 | CCOc1ncccc1-c1cc(NCc2nnn(C)n2)c2c(n1)c(C)nn2C(C)C [Example 8, 5-(2-ethoxy-3-pyridyl)-1-isopropyl-3-methyl-N-[(2-methyltetrazol-5-yl)methyl]pyrazolo[4,3-b]pyridin-7-amine] | 0.34
16 | CCOc1ncccc1-c1cc(NCc2ccncn2)c2c(n1)c(C)nn2C(C)C [Example 73, 5-(2-ethoxy-3-pyridyl)-1-isopropyl-3-methyl-N-(pyrimidin-4-ylmethyl)pyrazolo[4,3-b]pyridin-7-amine] | 9.2
17 | CCOc1ncccc1-c1cc(NCc2ncccn2)c2c(n1)c(C)nn2C(C)C [Example 74, 5-(2-ethoxy-3-pyridyl)-1-isopropyl-3-methyl-N-(pyrimidin-2-ylmethyl)pyrazolo[4,3-b]pyridin-7-amine] | 0.34

Same assay, conditions: PDE1B, IC50 (nM), 15 nM tritium labelled cAMP, 1 hr at room temperature, SPA beads

Row | Compound | IC50 [nM]
18 | CCCOc1ncccc1-c1cc(NCc2cc[nH]n2)c2c(n1)c(C)nn2C(C)CC (single isomer, unassigned) [Example 135, 3-methyl-1-[1-methylpropyl]-5-(2-propoxy-3-pyridyl)-N-(1H-pyrazol-3-ylmethyl)pyrazolo[4,3-b]pyridin-7-amine] | 0.095
